Measured values published in ChEMBL document CHEMBL3425429.

The chains behind the UniProt entries cited, without tags or fusion partners. Where a name states a change or a piece, a line headed by the entry shows the natural chain unless it says otherwise.
UniProt P12931: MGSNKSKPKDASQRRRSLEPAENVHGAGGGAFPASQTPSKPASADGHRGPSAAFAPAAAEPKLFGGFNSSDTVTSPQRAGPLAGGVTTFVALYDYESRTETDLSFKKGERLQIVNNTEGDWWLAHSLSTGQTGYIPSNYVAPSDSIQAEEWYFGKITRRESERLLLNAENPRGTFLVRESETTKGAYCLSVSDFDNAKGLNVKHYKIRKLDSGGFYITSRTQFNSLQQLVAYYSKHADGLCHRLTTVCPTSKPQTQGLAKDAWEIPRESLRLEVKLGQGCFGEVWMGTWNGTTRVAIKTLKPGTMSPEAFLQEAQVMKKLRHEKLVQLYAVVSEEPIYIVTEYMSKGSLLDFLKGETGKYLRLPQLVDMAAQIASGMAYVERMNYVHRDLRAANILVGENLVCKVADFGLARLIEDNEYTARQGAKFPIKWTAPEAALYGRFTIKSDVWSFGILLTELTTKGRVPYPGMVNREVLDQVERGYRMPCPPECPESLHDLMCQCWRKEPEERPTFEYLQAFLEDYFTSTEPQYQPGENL

Tests used:
MDA-MB-231 = assay: Induction of apoptosis in human MDA-MB-231 cells assessed as early apoptotic cells at 0.1 uM after 24 hrs by annexin V-FITC/propidium iodide staining-based flow cytometric analysis (reference value: 1.58%); type: functional
[1] = target: Proto-oncogene tyrosine-protein kinase Src (Homo sapiens, UniProt P12931)

| SMILES | Activity (MDA-MB-231) [%] | IC50 [1] [nM] |
| --- | --- | --- |
| CCn1nc(C#Cc2cc(C(=O)Nc3ccc(CN4CCN(C)CC4)c(C(F)(F)F)c3)ccc2C)c2c(N)ncnc21 | 8.67 |  |
| C=CC(=O)N1CCC(n2nc(C#Cc3cc(C(=O)Nc4ccc(CN5CCN(C)CC5)c(C(F)(F)F)c4)ccc3C)c3c(N)ncnc32)CC1 |  | 15 |
